Results: ChEMBL document CHEMBL3588773, “Volume of Distribution in Drug Design” (J Med Chem, 2015)

Assay: Half life in human
Type: ADME, organism-based
Conditions: in vivo

CC[C@H]1OC(=O)[C@H](C)[C@@H](O[C@H]2C[C@@](C)(OC)[C@@H](O)[C@H](C)O2)[C@H](C)[C@@H](O[C@@H]2O[C@H](C)C[C@H](N(C)C)[C@H]2O)[C@](C)(O)C[C@@H](C)C(=O)[C@H](C)[C@@H](O)[C@]1(C)O [ERYTHROMYCIN]
half-life: 2 h
